This is a selection; strong and weak results do not stand in their true shares. Results filed as inconclusive are left out. Calls of active or inactive are those of the source.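 How the source made its calls: active means thallium flux slope beyond 3 SD from same-plate DMSO control mean in most replicates, usually higher, sometimes lower; inconclusive means repeat tests gave conflicting results; inactive means no significant difference from controls in most replicates.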
Target: Solute carrier family 12 member 5 (Homo sapiens) (UniProt Q9H2X9)
Test: KCC2 inhibitors and activators, ouabain retest, confirmation, HEK-KCC2 cells (AID 1717);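 further: slope of initial-normalized fluorescence between seconds 10 and 20 after thallium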
Conditions: HEK293-KCC2, thallium flux FluoZin2 fluorescence, at 10 µM, bidirectional: low = inhibitor, high = activator

Chains of the proteins cited; added tags and fusions are not shown. Lines headed by an entry give the natural chain unless they say otherwise; changes in a name come on top.
UniProt Q9H2X9: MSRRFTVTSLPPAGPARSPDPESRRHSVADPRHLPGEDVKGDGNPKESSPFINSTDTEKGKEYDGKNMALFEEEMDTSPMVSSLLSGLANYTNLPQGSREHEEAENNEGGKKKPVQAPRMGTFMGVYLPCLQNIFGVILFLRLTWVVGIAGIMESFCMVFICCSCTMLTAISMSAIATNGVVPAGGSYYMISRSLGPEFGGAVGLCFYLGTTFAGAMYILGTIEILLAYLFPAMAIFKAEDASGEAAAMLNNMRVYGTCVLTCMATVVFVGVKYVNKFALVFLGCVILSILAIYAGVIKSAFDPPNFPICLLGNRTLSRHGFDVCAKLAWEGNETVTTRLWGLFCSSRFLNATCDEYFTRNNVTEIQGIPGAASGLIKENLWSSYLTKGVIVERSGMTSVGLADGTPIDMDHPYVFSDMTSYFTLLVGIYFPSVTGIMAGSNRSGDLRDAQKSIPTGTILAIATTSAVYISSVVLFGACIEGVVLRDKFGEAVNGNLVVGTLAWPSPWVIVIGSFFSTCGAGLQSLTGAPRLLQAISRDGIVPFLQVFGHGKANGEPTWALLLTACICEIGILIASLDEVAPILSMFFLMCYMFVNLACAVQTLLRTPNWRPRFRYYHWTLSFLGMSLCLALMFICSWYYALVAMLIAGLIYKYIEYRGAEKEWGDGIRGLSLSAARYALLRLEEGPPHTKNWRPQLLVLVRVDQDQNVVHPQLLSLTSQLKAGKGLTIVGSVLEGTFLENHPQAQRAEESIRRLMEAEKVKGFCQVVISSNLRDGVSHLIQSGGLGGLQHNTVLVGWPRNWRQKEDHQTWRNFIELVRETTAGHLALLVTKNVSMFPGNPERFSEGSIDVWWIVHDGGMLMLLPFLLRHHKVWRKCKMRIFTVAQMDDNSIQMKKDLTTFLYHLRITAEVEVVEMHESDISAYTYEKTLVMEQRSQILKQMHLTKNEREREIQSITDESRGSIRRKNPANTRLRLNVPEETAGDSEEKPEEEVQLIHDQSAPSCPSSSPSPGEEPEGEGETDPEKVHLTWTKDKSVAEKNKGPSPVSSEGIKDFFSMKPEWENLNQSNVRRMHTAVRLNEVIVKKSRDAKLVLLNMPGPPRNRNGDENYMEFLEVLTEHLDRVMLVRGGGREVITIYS

Q: Which raw Tl+ flux slope (below DMSO = inhibition, above = activation) does the source give for O=c1c2cc([N+](=O)[O-])ccc2[nH]c2c([N+](=O)[O-])cc([N+](=O)[O-])cc12 here?
A: active: 0.0263

Q: With C[N+]1=C2C=CC=CC=C2SC12C([N+](=O)[O-])=CC([N+](=O)[O-])=C[C-]2[N+](=O)[O-] (stereo not drawn) as the molecule, how does the raw Tl+ flux slope (below DMSO = inhibition, above = activation) read?
A: active: 0.0285

Q: O=P(Nc1nc2ccc(Cl)cc2s1)(c1ccccc1)c1ccccc1 was tested. Which raw Tl+ flux slope (below DMSO = inhibition, above = activation) did it give?
A: active: 0.023
